In this assay the target is human CK2 holoenzyme (Homo sapiens, UniProt P68400). As to conditions: IC50 (CK2) divided by IC50 (ABCG2) of Table 1.

The chains behind the UniProt entries cited, without tags or fusion partners.
UniProt P68400, whole entry: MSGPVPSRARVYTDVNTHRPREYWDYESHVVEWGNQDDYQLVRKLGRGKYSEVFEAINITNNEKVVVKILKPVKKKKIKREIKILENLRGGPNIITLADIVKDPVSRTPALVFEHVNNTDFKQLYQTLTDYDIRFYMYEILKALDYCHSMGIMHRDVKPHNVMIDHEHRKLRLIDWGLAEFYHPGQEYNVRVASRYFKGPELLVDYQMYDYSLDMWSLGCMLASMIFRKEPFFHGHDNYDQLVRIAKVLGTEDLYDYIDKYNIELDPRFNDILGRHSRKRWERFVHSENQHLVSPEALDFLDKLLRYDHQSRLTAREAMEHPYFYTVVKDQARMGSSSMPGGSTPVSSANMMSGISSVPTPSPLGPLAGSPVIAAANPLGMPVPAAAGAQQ

This is an account of results in paper PMC4498724 (Drug Design, Development and Therapy, 2015).

Several values for one entry are separate records, joined by “and”; a condition that tells them apart may be missing. Identical values can stand only once.

Take `Cc1cc(=O)c2c3c(=O)c4ccccc4c3n(CCc3ccccc3)c2c1=O` [Compound 6f, 7-Methyl-5-(2-phenylethyl)-5H-indeno[1,2-b]indole-6,9,10-trione]: the AGCG2/CK2 is 5–27 and 5.
